# Source: ChEMBL document CHEMBL1138473, “NMR and molecular dynamics study of the binding mode of naphthalene-N-sulfonyl-D-glutamic acid derivatives: novel MurD ligase inhibitors” (J Med Chem, 2009)
# Experiment: Inhibition of Escherichia coli BL21-A1 MurD
compound,measurement,value
N#Cc1ccc(COc2ccc3cc(S(=O)(=O)N[C@H](CCC(=O)O)C(=O)O)ccc3c2)cc1,IC50,105 µM
